Target: T1, L-proline-3-hydroxylase (Streptomyces sp, UniProt P96010)
T1 construct: made in house; host or cells: Streptomyces sp; TH1 (native producer, not recombinant)
T1 sequence (P96010 1-290): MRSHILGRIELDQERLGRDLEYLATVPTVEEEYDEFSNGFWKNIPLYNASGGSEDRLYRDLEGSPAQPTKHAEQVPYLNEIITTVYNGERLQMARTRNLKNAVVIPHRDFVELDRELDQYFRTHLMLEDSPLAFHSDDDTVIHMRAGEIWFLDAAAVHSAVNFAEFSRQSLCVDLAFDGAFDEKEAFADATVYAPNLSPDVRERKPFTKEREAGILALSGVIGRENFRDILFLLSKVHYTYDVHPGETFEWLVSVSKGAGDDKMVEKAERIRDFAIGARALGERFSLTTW
Assay: Substrate omission and addition tests on the enzyme reaction of pure L-proline-3-hydroxylase
Type: biochemical, Streptomyces sp. TH1
Details: for Relative Activity: standard = 100, 35° C., 10 minutes; for Influence on the enzyme reaction for hydroxylating L-proline at the 3-position: result in words of omission and addition tests

[1] = component not added (−) to standard reaction mixture
[2] = component added (+) at 1 mm to standard reaction mixture

Which “Relative Activity” value [1] does the source give for `O=C(O)CCC(=O)C(=O)O` [2-ketoglutaric acid] here?
The value was 0.

What about the “Influence on the enzyme reaction for hydroxylating L-proline at the 3-position” value (shortened to “Influence on the enzyme reaction”) of the same molecule?
Its value is “indispensable”.

For `[Ba+2]` [Ba^++], which “Relative Activity” value [2] is on record?
Its value is 42.

And the “Influence on the enzyme reaction” value?
The value was “inhibit the reaction”.

For `[Co+2]` [Co^++], which “Relative Activity” value [2] is on record?
The value was 13.

And the “Influence on the enzyme reaction” value?
Its value is “inhibit the reaction”.

For `[Cu+2]` [Cu^++], which “Relative Activity” value [2] is on record?
Its value is 4.

And the “Influence on the enzyme reaction” value?
The value was “inhibit the reaction”.

`[Fe+2]` [Fe^++] was tested. Which “Relative Activity” value [1] did it give?
The value was 0.

And the “Influence on the enzyme reaction” value?
Its value is “indispensable”.

Which results are given for `O=C1O[C@H]([C@@H](O)CO)C(O)=C1O` [L-ascorbic acid]?
Relative Activity [1]: 25; Influence on the enzyme reaction for hydroxylating L-proline at the 3-position: promotes the enzyme reaction

What does the source list for `[Zn+2]` [Zn^++]?
Relative Activity [2]: 0; Influence on the enzyme reaction for hydroxylating L-proline at the 3-position: inhibit the reaction

Reference: US6767726B2, “Process for producing cis-3-hydroxy-L-proline” (Kyowa Hakko Kogyo Co., Ltd., priority 1993, dated 2004)
